Data on two molecules can be found in ChEMBL document CHEMBL1152608, “Design, synthesis, and X-ray crystal structures of 2,4-diaminofuro[2,3-d]pyrimidines as multireceptor tyrosine kinase and dihydrofolate reductase inhibitors” (Bioorg Med Chem, 2009).

Structures are written as SMILES.

Usually Ki stands for a measure of affinity in units of concentration, obtained from inhibition or displacement. For orientation: IC50 means the point on the concentration scale where inhibition reaches its midpoint.

Assay [1] has as its target T1, Dihydrofolate reductase (Mus musculus, UniProt P00375).
T1 sequence (P00375 whole entry): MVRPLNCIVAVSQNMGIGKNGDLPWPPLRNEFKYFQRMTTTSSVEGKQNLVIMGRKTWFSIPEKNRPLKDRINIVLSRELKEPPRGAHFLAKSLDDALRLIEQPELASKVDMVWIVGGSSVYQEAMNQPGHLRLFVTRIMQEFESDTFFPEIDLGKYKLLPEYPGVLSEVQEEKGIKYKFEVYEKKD

Assay [2] has as its target T1, Dihydrofolate reductase. Nature of the assay: Inhibition of mouse DHFR in presence of saturating levels of NADPH and DHFA.

At Dihydrofolate reductase [1], `COc1ccccc1/C(C)=C\c1coc2nc(N)nc(N)c12` displayed an inhibitory constant (Ki) of 62 nM.
For the molecule `COc1ccccc1/C(C)=C/c1coc2nc(N)nc(N)c12`, the 50% inhibitory concentration (IC50) at Dihydrofolate reductase [2] stood at 14500 nM. In addition, the inhibition constant (Ki) on Dihydrofolate reductase [1] is 160 nM.
